Experimental data: patent US9408926B2, “KDR and VEGF/KDR binding peptides and their use in diagnosis and therapy” (Bracco Suisse S.A., priority 2002, dated 2016)

Chains of the proteins cited; added tags and fusions are not shown. A line that says so, or that is headed by a name, gives the form on record, which may keep a tag or linker. Residues count along the entry.
UniProt P35918, with tags, fused parts or gaps limits assumed: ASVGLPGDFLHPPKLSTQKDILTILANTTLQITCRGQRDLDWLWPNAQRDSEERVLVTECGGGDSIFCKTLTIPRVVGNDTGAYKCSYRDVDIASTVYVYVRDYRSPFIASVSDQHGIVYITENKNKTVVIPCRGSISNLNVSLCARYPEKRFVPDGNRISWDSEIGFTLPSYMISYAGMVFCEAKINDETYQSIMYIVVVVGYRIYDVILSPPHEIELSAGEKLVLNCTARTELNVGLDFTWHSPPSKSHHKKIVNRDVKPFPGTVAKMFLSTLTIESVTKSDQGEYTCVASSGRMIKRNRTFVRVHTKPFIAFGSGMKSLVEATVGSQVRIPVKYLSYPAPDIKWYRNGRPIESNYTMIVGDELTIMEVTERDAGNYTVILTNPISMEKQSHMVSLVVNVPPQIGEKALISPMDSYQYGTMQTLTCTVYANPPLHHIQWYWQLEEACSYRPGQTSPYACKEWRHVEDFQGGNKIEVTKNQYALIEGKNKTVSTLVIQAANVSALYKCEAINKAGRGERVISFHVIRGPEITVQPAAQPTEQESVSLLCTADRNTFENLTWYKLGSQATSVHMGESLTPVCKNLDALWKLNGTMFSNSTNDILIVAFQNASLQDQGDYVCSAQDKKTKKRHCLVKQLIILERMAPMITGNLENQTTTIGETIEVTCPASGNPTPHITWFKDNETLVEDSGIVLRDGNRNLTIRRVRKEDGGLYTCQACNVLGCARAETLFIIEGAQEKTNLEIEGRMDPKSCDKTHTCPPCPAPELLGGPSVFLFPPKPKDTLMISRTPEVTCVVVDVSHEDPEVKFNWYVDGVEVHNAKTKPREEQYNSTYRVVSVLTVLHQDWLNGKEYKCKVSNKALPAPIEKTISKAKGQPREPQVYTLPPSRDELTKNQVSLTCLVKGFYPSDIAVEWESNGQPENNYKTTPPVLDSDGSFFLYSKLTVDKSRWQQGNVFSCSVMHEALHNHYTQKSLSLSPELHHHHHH
UniProt P35968, 20-1356: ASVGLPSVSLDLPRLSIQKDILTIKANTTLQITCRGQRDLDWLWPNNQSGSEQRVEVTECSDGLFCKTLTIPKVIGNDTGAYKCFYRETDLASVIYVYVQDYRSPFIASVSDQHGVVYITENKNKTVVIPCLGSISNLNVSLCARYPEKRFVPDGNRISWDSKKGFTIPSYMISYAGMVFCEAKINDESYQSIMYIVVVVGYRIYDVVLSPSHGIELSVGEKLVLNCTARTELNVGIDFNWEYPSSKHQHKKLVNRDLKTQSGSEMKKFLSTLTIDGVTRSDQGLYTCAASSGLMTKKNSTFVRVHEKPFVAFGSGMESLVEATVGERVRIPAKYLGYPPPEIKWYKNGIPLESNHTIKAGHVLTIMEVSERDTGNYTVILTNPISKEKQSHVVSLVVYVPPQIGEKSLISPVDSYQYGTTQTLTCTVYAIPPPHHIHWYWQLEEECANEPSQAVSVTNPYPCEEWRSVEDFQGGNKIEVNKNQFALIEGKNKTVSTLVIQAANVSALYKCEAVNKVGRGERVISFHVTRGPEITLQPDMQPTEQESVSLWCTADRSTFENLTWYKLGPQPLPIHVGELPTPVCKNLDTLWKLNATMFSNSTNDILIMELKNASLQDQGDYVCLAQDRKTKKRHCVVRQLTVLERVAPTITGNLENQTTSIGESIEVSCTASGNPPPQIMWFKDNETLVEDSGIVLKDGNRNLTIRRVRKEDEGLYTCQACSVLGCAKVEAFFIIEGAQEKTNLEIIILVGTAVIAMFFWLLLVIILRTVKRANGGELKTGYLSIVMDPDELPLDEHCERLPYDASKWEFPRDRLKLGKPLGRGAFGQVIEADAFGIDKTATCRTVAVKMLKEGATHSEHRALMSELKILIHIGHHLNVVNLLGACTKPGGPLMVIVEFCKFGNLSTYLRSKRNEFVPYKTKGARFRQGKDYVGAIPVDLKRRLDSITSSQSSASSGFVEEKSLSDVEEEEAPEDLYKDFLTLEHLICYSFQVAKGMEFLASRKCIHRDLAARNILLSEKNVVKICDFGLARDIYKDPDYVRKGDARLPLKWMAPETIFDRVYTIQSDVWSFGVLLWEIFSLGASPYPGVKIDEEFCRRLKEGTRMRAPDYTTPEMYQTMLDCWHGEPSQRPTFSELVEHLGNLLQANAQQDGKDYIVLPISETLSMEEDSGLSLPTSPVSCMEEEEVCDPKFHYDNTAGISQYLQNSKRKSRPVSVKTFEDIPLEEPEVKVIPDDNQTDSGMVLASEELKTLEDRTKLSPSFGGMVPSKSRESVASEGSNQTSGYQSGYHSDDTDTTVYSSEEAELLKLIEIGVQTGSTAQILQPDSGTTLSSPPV
UniProt P35968, with tags, fused parts or gaps limits assumed: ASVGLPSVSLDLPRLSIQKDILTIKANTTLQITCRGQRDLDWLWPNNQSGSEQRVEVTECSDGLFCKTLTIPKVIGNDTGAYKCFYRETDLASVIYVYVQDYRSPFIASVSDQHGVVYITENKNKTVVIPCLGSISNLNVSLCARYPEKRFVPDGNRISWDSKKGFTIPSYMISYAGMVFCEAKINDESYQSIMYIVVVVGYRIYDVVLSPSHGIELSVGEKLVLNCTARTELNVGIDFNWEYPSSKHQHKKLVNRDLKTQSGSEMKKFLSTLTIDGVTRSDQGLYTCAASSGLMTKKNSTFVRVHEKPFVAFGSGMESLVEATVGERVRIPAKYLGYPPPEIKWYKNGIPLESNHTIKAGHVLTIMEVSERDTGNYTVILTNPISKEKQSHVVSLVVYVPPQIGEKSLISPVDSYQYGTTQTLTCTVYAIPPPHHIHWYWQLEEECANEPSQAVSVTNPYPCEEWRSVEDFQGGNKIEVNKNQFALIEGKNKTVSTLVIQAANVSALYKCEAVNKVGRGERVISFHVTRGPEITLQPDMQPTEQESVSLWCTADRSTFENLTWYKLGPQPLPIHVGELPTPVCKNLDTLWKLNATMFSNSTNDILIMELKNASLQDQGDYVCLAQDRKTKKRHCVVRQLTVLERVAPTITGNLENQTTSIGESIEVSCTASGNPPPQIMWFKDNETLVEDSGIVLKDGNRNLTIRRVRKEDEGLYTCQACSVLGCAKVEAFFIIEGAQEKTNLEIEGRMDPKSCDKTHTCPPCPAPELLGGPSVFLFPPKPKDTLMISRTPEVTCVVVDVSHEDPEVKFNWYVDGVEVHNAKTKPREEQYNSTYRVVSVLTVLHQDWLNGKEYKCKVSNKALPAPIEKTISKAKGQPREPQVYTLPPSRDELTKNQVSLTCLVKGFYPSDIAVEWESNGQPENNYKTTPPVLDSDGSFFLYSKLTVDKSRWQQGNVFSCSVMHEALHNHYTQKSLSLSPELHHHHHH

Legend:
[1] = tested on: VEGF-induced migration of HUVECs; assay: VEGF-induced HUVEC migration assay; type: cell-based, human
[2] = target: T1, murine KDR-Fc (Mus musculus, UniProt P35918); assay: BIAcore kinetic analysis of binding to murine KDR-Fc
T1 construct: purchased R & D Systems (Minneapolis, Minn.) 443-KD-050

[3] = target: KDR (Homo sapiens, UniProt P35968); assay: Inhibition of VEGF-induced KDR receptor activation (phosphorylation) in HUVECs; type: cell-based; design: host or cells: HUVEC; settings: at (up to) 100 nM
[4] = target: KDR-Fc (Homo sapiens, UniProt P35968); type: binding; settings: monodentate peptide; read-out: KD measured by FP against the KDRFc construct
[5] = 5 days at room temperature
[6] = vs. 2700RU murine KDR-Fc surface
[7] = vs. 5000RU murine KDR-Fc surface

Substance: Ac-AQDWYYDEILSMADQLRHAFLSGGGGGK (SEQ ID NO:356) {Ac-AQDWYYDEILSMADQLRHAFLSGGGGGK (SEQ ID NO:356) (J-Glut-)-NH2}K(Biotin-JJ)-NH2 [D8]
- Effect on VEGF-induced migration ([1]; 800 nM): had no significant effect

Substance: Ac-AGPTWCEDDWYYCWLFGTGGGK (SEQ ID NO:277)[(Biotin-JJK-(O═)C(CH2)3C(═O)-JJ-NH(CH2)4—(S)—CH((Ac-VCWEDSWGGEVCFRYDPGGGK (SEQ ID NO:337))-NH)CONH2]—NH2 [D1]
- KD1 (calculated KD based on kd1/ka1) [2, 6]: 17.5 nM
- KD2 (calculated KD based on kd2/ka1, avidity factor) [2, 6]: 0.751 nM
- KD1 (calculated KD based on kd1/ka1) [2, 7]: 16.0 nM
- KD2 (calculated KD based on kd2/ka1, avidity factor) [2, 7]: 0.825 nM

Substance: Ac-AGPTWCEDDWYYCWLFGTGGGK (SEQ ID NO:277) [(Biotin-JJK-(O═)C(CH2)3C(═O)-JJ-NH(CH2)4—(S)—CH((Ac-AGPTWCEDDWYYCWLFGTJK (SEQ ID NO:493))-NH)CONH2]—NH2 [D2]
- Effect on VEGF-induced phosphorylation of KDR [3]: had no effect

Substance: AQDWYYDEILSMADQLRHAFLSGGGK [SEQ ID NO:310]
- Kd [4]: 51 nM

Substance: Ac-VC WEDS WGGEVCFRYDPGGGK (SEQ ID NO:337)[(Biotin-JJK-(O═)C(CH2)3C(═O)-JJ-NH(CH2)4—(S)—CH((Ac-VCWEDSWGGEVCFRYDPGGGK (SEQ ID NO:337))-NH)CONH2]—NH2 [D3]
- Effect on VEGF-induced phosphorylation of KDR [3]: had no effect

Substance: Ac-AGPTWCEDDWYYCWLFGTGGGK{Ac-VCWEDSWGGEVCFRYDPGGGK[-Adoa-Adoa-Glut-K(DSPE-PEG2000-NH-Glut)]-NH2 cyclic (2-12) disulfide}-NH2 cyclic (6-13) disulfide [(21)]
- Formation of lyso-compound on storage [5]: no lyso-compound formed after 5 days at room temperature

Substance: Ac-AGPTWCEDDWYYCWLFGTGGGK (SEQ ID NO:277){Ac-VCWEDSWGGEVCFRYDPGGGK (SEQ ID NO:337)[S(GalNAc-alpha-D)-G-S(GalNAc-alpha-D)-Glut-S(GalNAc-alpha-D)-G-S(GalNAc-alpha-D)-NH(CH2)4—(S)—CH(Biotin-JJNH—)C(═O)—]—NH2}—NH2 [D27]
- Potency relative to D25 in the migration assay [1]: ten-fold more potent
